Values of other authors as cited in paper PMC3046303.

The chains behind the UniProt entries cited, without tags or fusion partners. Residues count along the entry.
UniProt P02708, 21-457: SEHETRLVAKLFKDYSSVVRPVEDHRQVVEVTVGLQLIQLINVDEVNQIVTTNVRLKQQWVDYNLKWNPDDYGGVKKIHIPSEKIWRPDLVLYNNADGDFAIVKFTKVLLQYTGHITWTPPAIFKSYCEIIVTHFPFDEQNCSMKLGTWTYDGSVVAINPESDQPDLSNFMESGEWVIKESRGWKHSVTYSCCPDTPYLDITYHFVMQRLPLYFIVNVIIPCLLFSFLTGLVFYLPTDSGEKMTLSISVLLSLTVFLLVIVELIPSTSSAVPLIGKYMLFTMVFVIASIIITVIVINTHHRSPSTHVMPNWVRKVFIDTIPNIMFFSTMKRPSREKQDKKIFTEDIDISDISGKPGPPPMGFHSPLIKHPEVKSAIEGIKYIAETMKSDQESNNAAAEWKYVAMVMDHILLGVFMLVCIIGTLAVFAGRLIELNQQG

Target: acetylcholine receptor (AChR) (Homo sapiens) (UniProt P02708)

Substance: alpha-bungarotoxin (from UniProt P60615)
- Kd: 0.26 nM
